Biological target: Progestin Receptor (Oryctolagus cuniculus, UniProt P06186)
Assay: Progestin Receptor Binding (competitive binding, 3H-promegestone, rabbit uterus receptor preparation)
Settings: 3H-promegestone displacement, 4° C., 18 h

Amino acid sequences for entries named in this document (tags omitted).
UniProt P06186, whole entry: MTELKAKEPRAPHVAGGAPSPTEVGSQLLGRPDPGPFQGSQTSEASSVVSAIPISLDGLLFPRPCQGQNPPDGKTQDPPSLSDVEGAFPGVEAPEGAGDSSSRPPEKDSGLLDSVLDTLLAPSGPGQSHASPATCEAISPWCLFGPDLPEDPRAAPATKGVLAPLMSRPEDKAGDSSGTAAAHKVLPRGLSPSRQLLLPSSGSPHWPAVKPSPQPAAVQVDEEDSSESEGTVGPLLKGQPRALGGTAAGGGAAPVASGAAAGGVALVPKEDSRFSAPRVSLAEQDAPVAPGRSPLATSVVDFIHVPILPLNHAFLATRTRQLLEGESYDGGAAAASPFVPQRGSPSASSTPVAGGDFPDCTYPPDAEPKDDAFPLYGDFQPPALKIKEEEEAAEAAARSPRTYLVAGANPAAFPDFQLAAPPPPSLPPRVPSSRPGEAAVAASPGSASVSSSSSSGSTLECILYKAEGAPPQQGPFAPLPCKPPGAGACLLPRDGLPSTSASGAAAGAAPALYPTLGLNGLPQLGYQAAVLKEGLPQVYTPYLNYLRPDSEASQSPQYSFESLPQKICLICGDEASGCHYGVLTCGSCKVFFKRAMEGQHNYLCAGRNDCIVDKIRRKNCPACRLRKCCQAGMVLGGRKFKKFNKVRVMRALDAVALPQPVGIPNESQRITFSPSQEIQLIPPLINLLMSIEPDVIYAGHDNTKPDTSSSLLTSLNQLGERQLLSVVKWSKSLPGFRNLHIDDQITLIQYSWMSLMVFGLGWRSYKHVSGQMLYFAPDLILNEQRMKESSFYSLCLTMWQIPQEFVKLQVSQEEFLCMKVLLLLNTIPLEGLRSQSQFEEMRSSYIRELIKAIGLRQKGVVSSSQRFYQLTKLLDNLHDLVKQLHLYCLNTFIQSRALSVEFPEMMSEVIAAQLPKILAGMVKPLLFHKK

- IC50: 10 µM
SMILES: COc1ccc2c(c1)CC1(C)Cc3cc(OC)ccc3C1=CC2 (stereo not shown)
